Reference: patent publication US6949383B2 (priority 1998, dated 2005)

How the values were obtained:
wild type (dnaQ+ strain) = assay: MNNG mutagenesis treatment: growth or extinction of the treated group
Wild-Type = assay: Minimum growth inhibiting concentration (MIC) of antibiotic substances; format: cell-based, Escherichia coli
dnaQ = assay: as above; format: cell-based, Escherichia coli
Super-Amp-resistant dnaQ = assay: as above; format: cell-based, Escherichia coli

Molecule | Fate of MNNG-treated wild type group (d.o.: died out) (wild type (dnaQ+ strain); MNNG 3 μg/ml medium, 5th Run) | Fate of MNNG-treated wild type group (d.o.: died out) (wild type (dnaQ+ strain); MNNG 10 μg/ml medium, 2nd Run) | Fate of MNNG-treated wild type group (d.o.: died out) (wild type (dnaQ+ strain); MNNG 30 μg/ml medium, 2nd Run) | Fate of MNNG-treated group (wild type (dnaQ+ strain); high-concentration MNNG treatment) | Minimum growth inhibiting concentration (MIC) (Wild-Type) | Minimum growth inhibiting concentration (MIC) (dnaQ) | Minimum growth inhibiting concentration (MIC) (Super-Amp-resistant dnaQ)
CN(N=O)C(=N)N[N+](=O)[O-] | d.o. | d.o. | d.o. | extinction of the microorganism took place | – | – | –
Tetracyctine | – | – | – | – | 0.25 | 0.25 | 0.25
